According to patent US6207701A, “Urokinase inhibitors” (Abbott Laboratories, priority 2000, dated 2001):
Where a name gives a salt, the structure may show the parent alone.

Target: T1, urokinase enzyme Abbokinase (Homo sapiens, UniProt P00749)
T1 construct: purchased Abbott Laboratories, Abbott Park, Ill
Experiment: Determination of Urokinase Inhibition (chromogenic substrate S-2444)
Assay type: biochemical
Method: Distributor of Chromogenix) at 200 μM. […] Four concentrations were chosen, then 5 μl of each were diluted to a total assay volume of 200 μl. […] Several vials were reconstituted as directed on the vial, aliquoted and stored frozen. The enzyme was further diluted in assay buffer and 10 μl was used in the assay. Enzyme concentration in the assay was 2-3 nM. […] The Spectromax® calculated the reaction rates which were used to calculate percent inhibition of the compounds of this invention versus the reaction rate of the enzyme in the absence of any inhibitor. The Ki 's of the inhibitors were calculated from the percent inhibition and previously established Km.

IC50: 0.122 µM
SMILES: N=C(N)c1cc2c(Nc3ncccn3)cccc2s1 [Example 1, 4-(2-pyrimidinylamino)-1-benzothiophene-2-carboximidamide, trifluoroacetic acid salt]
